# Only a part is listed here, and it is no random draw. The source made the active and inactive calls.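 How the source made its calls: active means inhibition above the mean inhibition of all tested compounds plus 3 SD, set per campaign (cut at about 52% in these data); inactive means the rest.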
# Sequences of proteins named here, by UniProt entry; tags and fusion partners are left off. A change or cut given only in a name is not applied to a line headed by its entry.
# UniProt Q15596: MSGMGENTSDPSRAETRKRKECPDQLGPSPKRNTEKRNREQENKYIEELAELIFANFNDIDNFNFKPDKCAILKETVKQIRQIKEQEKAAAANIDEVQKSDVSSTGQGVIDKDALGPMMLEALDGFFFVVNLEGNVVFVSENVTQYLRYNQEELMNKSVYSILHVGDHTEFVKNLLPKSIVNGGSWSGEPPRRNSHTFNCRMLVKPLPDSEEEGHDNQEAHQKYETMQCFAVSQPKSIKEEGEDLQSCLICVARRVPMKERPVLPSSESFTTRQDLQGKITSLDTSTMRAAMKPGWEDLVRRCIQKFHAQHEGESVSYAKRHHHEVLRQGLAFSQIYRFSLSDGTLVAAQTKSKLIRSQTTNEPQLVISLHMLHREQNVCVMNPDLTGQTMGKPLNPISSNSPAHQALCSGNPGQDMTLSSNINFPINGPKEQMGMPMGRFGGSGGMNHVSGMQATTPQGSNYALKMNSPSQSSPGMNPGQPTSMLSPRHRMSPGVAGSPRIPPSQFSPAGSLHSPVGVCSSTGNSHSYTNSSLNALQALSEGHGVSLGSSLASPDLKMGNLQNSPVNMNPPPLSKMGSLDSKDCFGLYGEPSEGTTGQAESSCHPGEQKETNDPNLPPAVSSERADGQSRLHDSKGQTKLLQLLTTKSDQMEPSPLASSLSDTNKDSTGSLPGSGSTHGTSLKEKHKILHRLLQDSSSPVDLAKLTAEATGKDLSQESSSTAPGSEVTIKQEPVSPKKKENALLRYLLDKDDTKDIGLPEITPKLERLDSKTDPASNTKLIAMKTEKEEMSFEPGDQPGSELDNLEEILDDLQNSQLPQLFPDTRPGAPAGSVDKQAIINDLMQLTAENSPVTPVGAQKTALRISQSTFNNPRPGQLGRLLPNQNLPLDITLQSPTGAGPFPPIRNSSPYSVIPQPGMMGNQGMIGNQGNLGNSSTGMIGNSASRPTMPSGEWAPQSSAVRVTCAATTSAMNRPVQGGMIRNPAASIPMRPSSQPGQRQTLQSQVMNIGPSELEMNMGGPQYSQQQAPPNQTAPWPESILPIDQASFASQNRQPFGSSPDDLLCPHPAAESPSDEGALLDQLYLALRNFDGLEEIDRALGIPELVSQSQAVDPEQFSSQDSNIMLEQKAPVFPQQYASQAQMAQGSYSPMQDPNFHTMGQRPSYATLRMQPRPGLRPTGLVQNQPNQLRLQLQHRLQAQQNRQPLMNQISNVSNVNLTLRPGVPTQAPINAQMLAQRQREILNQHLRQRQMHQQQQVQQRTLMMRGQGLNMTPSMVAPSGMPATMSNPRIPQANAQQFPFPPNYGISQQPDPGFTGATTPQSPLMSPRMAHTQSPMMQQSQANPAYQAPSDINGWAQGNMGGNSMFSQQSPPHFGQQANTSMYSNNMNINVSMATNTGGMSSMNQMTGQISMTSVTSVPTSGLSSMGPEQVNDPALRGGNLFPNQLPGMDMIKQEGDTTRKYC
# Biological target: Nuclear receptor coactivator 2 (Homo sapiens) (UniProt Q15596)
# Experiment: decrease of SRC2 fusion reporter luminescence – cell-based, SRC2 inhibitor project, primary screen (AID 651957);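 further: 0% = DMSO treated cells and 100% = cells given Gossypol at 36 µM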
# Details: HEK293 GAL4-SRC2 luciferase reporter, at 9 µM, active compounds read high
row,SMILES,inhibition
1,CC(C)(C)C(=O)NC(Sc1ccncn1)C(Cl)(Cl)Cl (configuration not stated),inactive: 9.77%
2,O=[N+]([O-])c1ncn(CCn2ncnc2[N+](=O)[O-])n1,inactive: -9.96%
3,O=[N+]([O-])c1cccc(NC2=NCC(CBr)S2)c1 (configuration not stated),inactive: -8.33%
4,COC(=O)C1(C)COP(=O)(Nc2ccccc2)OC1 (configuration not stated),inactive: 6.13%
5,O=C(O)CNc1ccc([As](=O)(O)O)cc1,inactive: 1.04%
6,Nc1ccc(CCCCOc2ccccc2)cc1,inactive: -8.62%
7,COc1ccc(N)c([N+](=O)[O-])c1[N+](=O)[O-],inactive: -24.5%
8,O=P(Nc1ccccn1)(c1ccc(Br)cc1)c1ccc(Br)cc1,inactive: -22.3%
9,CN(C)C1(CNC(=O)c2ccc(Cl)c(S(N)(=O)=O)c2)CCCCC1,inactive: 16.7%
10,C[C@H]1OP(=O)(Oc2ccccc2)[C@H](O)[C@H](O)[C@H]1N=[N+]=[N-] (some centres not stated),inactive: 1.03%
11,O=P(Nc1nc2ccccc2s1)(c1ccccc1)c1ccccc1,inactive: 5.74%
12,O=[N+]([O-])c1ncn(CCn2cnc([N+](=O)[O-])n2)n1,inactive: 15.6%
13,CC(=O)NC(SC(=S)N(C)C)C(Cl)(Cl)Cl (configuration not stated),inactive: -16.3%
14,O=[As](O)(c1ccccc1)c1ccc(O)cc1,inactive: -13.6%
15,Nc1ccc([As](=O)(O)c2ccc([N+](=O)[O-])cc2)cc1,inactive: -5.01%
16,C(Cc1nn[nH]n1)Cc1nn[nH]n1,inactive: -12.2%
17,C/C(N)=N\P(=O)(OCc1ccccc1)OCc1ccccc1,inactive: 12.6%
18,O=C(OC1CN2CCC1CC2)c1cccc(Cl)c1 (configuration not stated),inactive: 15%
19,CC(C)C(=O)NC(Sc1ccccc1)C(Cl)(Cl)Cl (configuration not stated),inactive: -6.32%
20,O=P(Nc1nccs1)(c1ccccc1)c1ccccc1,inactive: 6.92%
21,c1nnnn1CCn1cnnn1,inactive: -3.72%
22,CCOc1ccc(C2=NCC(CBr)S2)cc1 (configuration not stated),inactive: -22%
23,O=P1(Nc2nc3ccc(Cl)cc3s2)COc2ccccc2O1 (configuration not stated),inactive: -24.8%
24,CCc1cc(O)c([N+](=O)[O-])c(C)c1[N+](=O)[O-],inactive: -0.58%

row,SMILES,inhibition
1,CC(C)(C)C(=O)NC(Sc1ccccc1)C(Cl)(Cl)Cl (configuration not stated),inactive: -23.8%
2,COC(=O)C1(C)COP(=O)(NCc2ccccc2)OC1 (configuration not stated),inactive: -33.6%
3,N#C/C(=C\c1ccc(N(CCBr)CCBr)cc1)C(N)=O,inactive: -22.6%
4,CC(=O)c1ccc(N2CC2c2ccncc2)cc1 (configuration not stated),inactive: -2.44%
5,C[C@@H]1C=CCP(=O)(Oc2ccccc2)O1 (some centres not stated),inactive: -10.1%
6,C[C@H]1OP(=O)(Oc2ccccc2)C[C@@H]2O[C@@H]21 (some centres not stated),inactive: 2.33%
7,Cc1ccccc1CN(C)C(=O)COC(=O)C(O)(c1ccccc1)c1ccccc1,inactive: -6.48%
8,CC(=O)Nc1ccc(Oc2c([N+](=O)[O-])cc([N+](=O)[O-])cc2[N+](=O)[O-])cc1,inactive: -19.5%
9,CC(=O)Nc1ccc([As](=O)(O)O)c(O)c1,inactive: 11.9%
10,CCNC(=S)/N=C(\N)N[N+](=O)[O-],inactive: -9.05%
11,O=C(NC1CCS(=O)(=O)C1)NP(=S)(Oc1ccccc1)Oc1ccccc1 (configuration not stated),inactive: 9.09%
12,Cc1ccc(NP(=O)(Oc2cccc(C)c2)Oc2cccc(C)c2)nc1,inactive: -27.1%
13,c1ccc(-c2nn[nH]n2)c(-c2nn[nH]n2)c1,inactive: 5.34%
14,O=P1(N(CCCl)CCCl)OCCC2CCCCN21 (configuration not stated),inactive: -17.3%
15,Cc1ccc(OP(=O)(Nc2ccccn2)Oc2ccc(C)cc2)cc1,inactive: -32.3%
16,CC(=O)NC(SC(=S)N(CC(C)C)CC(C)C)C(Cl)(Cl)Cl (configuration not stated),inactive: -16.1%
17,COC(=O)c1cc2c(s1)N=C(c1ccccc1)N(C)P2(=O)N1CCOCC1 (configuration not stated),inactive: -11.4%
18,CCC(=O)N1C2C3N(C(=O)CC)C1C1N(C(=O)CC)C(C(N1C(=O)CC)N3C(=O)CC)N2C(=O)CC,inactive: -3.7%
19,O=C(OC1CN2CCC1CC2)c1ccccc1 (configuration not stated),inactive: 5.91%
20,CN(C)C(=O)Oc1noc2ccccc12,inactive: 17.4%
21,O=c1c2cc([N+](=O)[O-])ccc2[nH]c2c([N+](=O)[O-])cc([N+](=O)[O-])cc12,inactive: -42%
22,Cc1ccccc1OP(=O)(Nc1ccccn1)Oc1ccccc1C,inactive: 2.81%
23,CC(NC(=O)COC(=O)C(O)(c1ccccc1)c1ccccc1)c1ccccc1 (configuration not stated),inactive: -21.4%

# — PubChem BioAssay AID651957 (The Scripps Research Institute Molecular Screening Center, 2012)
